The target of this test is 15-PGDH (Homo sapiens (Human), UniProt P15428). The test is described as follows: Assay for the activities of 15-PGDH inhibitors (formation of NADH at 340 nm). Type of test: biochemical. As to conditions: purified 15-PGDH enzyme, 21 μM PGE2, 0.25 mM NAD+, pH 7.5; concentration inhibiting 50% of 15-PGDH activity. The method, then:
<1-1> Expression and Purification of 15-PGDH
A 15-PGDH cDNA plasmid containing BamHI and EcoRI sites of the pGES-2T expression vector was used to transform Escherichia coli BL-21 lysS in accordance with the ordinarily used in the art. The transformed cells were grown in 500 mL LB medium containing 50 μg/mL ampicillin at 37° C. while being stirred at 220 rpm until the OD600 reached 0.6. Isopropyl β-D-thiogalactoside (1 mM) was added and the cells were allowed to grow for 12 hours at 25° C. Then, the pellets were harvested by centrifugation at 4000×g for 30 minutes at 4° C. The cell pallets were resuspended in 20 mL cell lysis buffer (1×PBS buffer (pH 7.4) containing 1 mM EDTA and 0.1 mM DTT) and sonicated (14×10 s at 4° C.). The disrupted cells were centrifuged at 4000×g for 20 minutes at 4° C. The supernatant was loaded slowly on a glutathione-sepharose 4B column, which was equilibrated at 4° C. with a cell lysis buffer (1×PBS buffer (pH 7.4) containing 1 mM EDTA and 0.1 mM DTT). The column was washed with the lysis buffer until OD280 reached below 0.005. Then, 15-PGDH was eluted from the glutathione-sepharose 4B column at room temperature for 5 minutes by using the elution buffer (50 mM Tris-HCl (pH 8.0) containing 10 mM reduced glutathione, 1 mM EDTA and 0.1 mM DTT). The concentration and the purity of the purified enzyme were determined by SDS-PAGE.
<1-2> Assay for the Activities of 15-PGDH Inhibitors
The absorbance of the reaction mixture was recorded at 340 nm so that the activities of the derivatives according to the present invention as 15-PGDH inhibitors were determined from a standard curve prepared from the absorbance of various concentrations of NADH at 340 nm.

Chains of the proteins cited; added tags and fusions are not shown. Lines headed by an entry give the natural chain unless they say otherwise; changes in a name come on top.
UniProt P15428: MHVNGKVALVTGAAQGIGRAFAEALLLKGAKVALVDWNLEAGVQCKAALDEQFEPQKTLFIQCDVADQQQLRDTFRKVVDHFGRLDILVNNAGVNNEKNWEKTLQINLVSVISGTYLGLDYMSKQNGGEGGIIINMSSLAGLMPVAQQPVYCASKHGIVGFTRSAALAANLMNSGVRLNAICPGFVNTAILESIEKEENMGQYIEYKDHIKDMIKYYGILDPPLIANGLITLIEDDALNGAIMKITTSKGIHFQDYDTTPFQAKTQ

SMILES strings stand for the structures. pIC50: −log10 of the molar value.

As usually defined, the pIC50 is the IC50 on a negative log10 scale, so that one unit is a factor of ten. `O=C1NC(=O)/C(=C/c2ccc(OCCN3CCS(=O)(=O)CC3)c(Cl)c2)S1` [Derivative 17, 5-[3-chloro-4-(2-thiomorpholine-1,1-dioxideethoxy)benzylidene]-thiazolidine-2,4-dione] had a pIC50 of 6.51.
Under `O=C1NC(=O)/C(=C/c2ccc(OCc3ccccn3)cc2)S1` [Derivative 26, 5-(4-(pyridin-2-ylmethoxy)benzylidene)thiazolidine-2,4-dione] stands 5.44; under `O=C1NC(=O)/C(=C/c2ccc(OCCCCC3CCCCC3)cc2)S1` [Derivative 48, 5-(4-(4-cyclohexylbutoxy)benzylidene)thiazolidine-2,4-dione], 5.22.
Then `O=C1NC(=O)/C(=C/c2ccc(OCCOC3CCCCC3)cc2)S1` [Derivative 61, 5-(4-(2-(Cyclohexyloxy)ethoxy)benzylidene)thiazolidine-2,4-dione], with 6.66.
`O=C1NC(=O)/C(=C/c2ccc(OCc3ccccc3)c(Cl)c2)S1` [Derivative 68, 5-(4-(benzyloxy)-3-chlorobenzylidene)thiazolidine-2,4-dione] showed a pIC50 of 7.32.
Then `O=C1NC(=O)/C(=C/c2ccc(OCCCCc3ccccc3)c(Cl)c2)S1` [Derivative 71, 5-(3-chloro-4-(4-phenylbutoxy)benzylidene)thiazolidine-2,4-dione], with 7.32.
`O=C1NC(=O)/C(=C/c2cccc(OCCCCc3ccccc3)c2Cl)S1` [Derivative 74, 5-(2-chloro-3-(4-phenylbutoxy)benzylidene)thiazolidine-2,4-dione] had a negative-log IC50 (pIC50) of 7.27.
Then `CC1(COc2ccc(CC3SC(=O)NC3=O)cc2)CCCCC1` (centres unmarked) [Derivative 112, 5-(4-((1-methylcyclohexyl)methoxy)benzyl)thiazolidine-2,4-dione], with 5.76.

The values above are taken from patent US8637558B2 (Industry-Academic Cooperation Foundation, Chosun University, priority 2008, dated 2014).
